Source: ChEMBL document CHEMBL3763124, “N-Benzylbenzamides: A Novel Merged Scaffold for Orally Available Dual Soluble Epoxide Hydrolase/Peroxisome Proliferator-Activated Receptor γ Modulators” (J Med Chem, 2016)

Protein sequences, listed by entry. Tags and fused reporters are not part of them. Lines headed by an entry give the natural chain unless they say otherwise; changes in a name come on top.
UniProt P37231: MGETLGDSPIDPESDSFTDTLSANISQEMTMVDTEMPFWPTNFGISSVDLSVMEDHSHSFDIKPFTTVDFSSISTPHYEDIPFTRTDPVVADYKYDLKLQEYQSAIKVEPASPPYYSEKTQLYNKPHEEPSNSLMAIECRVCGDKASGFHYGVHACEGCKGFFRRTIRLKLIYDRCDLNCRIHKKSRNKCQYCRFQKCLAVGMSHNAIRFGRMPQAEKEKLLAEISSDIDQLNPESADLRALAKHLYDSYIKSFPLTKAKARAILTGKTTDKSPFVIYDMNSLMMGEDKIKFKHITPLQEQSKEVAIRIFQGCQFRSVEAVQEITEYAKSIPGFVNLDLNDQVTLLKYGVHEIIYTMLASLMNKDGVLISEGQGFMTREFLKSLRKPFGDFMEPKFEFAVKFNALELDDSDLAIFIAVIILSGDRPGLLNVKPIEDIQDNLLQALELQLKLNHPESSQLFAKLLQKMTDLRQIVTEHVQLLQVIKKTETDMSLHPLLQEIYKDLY

Key:
[1] = Apparent volume of distribution during terminal phase in RjOrl:Swiss (CD-1) mouse plasma at 30 mg/kg, po; assay type: ADME, organism-based; conditions: read-out: Vz/F
[2] = target: T1, Peroxisome proliferator-activated receptor gamma (Homo sapiens, UniProt P37231)
[3] = target: T1, Peroxisome proliferator-activated receptor gamma; assay: Transactivation of human PPARgamma expressed in African green monkey COS7 cells at 10 uM incubated overnight by dual-glo luciferase reporter gene assay; assay type: cell-based; conditions: COS-7
[4] = target: T2, Peroxisome proliferator-activated receptor alpha (Homo sapiens) (UniProt Q07869); assay: Transactivation of human PPARalpha expressed in African green monkey COS7 cells incubated overnight by dual-glo luciferase reporter assay relative to GW7647; assay type: cell-based; conditions: COS-7
T2 sequence (whole entry): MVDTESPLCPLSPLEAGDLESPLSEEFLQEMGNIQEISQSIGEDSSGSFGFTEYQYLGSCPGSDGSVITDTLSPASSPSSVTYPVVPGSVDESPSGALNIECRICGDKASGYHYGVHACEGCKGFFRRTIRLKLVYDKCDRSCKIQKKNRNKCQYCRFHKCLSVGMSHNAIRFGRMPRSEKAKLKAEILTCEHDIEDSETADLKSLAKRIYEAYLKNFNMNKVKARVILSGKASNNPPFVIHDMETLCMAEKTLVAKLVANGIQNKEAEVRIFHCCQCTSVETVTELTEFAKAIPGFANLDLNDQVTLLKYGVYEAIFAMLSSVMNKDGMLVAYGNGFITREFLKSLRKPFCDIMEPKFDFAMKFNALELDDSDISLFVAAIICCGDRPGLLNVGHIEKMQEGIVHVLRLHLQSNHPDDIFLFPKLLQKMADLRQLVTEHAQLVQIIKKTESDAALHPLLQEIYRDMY

Row | Structure (SMILES) | EC50 [2] [µM] | Activity [3] [%] | further results
1 | CCC(Cc1ccc(C(=O)NCc2ccccc2C(F)(F)F)cc1)C(=O)O (stereo unspecified) |  |  | Vd/F [1]: 8 L/kg
2 | CCC(Cc1ccc(C(=O)NCc2ccccc2C)cc1)C(=O)O (stereo unspecified) | 4 |  | 
3 | CCC(Cc1ccc(C(=O)NCc2ccc(OC(F)(F)F)cc2)cc1)C(=O)O (stereo unspecified) | 2 |  | 
4 | O=C(NCc1ccccc1C(F)(F)F)c1ccc(C2CC2C(=O)O)cc1 (stereo unspecified) |  | 24 | 
5 | CCOC(=O)C(CC)Cc1ccc(C(=O)NCc2ccc(F)cc2C(F)(F)F)cc1 (stereo unspecified) | 2.8 |  | 
6 | CCOC(=O)C(CC)Cc1ccc(C(=O)NCc2ccccc2C)cc1 (stereo unspecified) |  | 15 | 
7 | CCC(Cc1ccc(C(=O)NCc2ccc(C(F)(F)F)cc2)cc1)C(=O)O (stereo unspecified) | 6.3 |  | Emax [4]: 89%
8 | CCC(Cc1ccc(C(=O)NCc2ccc(F)cc2)cc1)C(=O)O (stereo unspecified) |  | 23 | 
9 | CCOC(=O)C(CC)Cc1ccc(C(=O)NCc2ccccc2Cl)cc1 (stereo unspecified) |  | 14 | 
10 | CCC(Cc1ccc(C(=O)NCc2ccc(F)cc2C(F)(F)F)cc1)C(=O)O (stereo unspecified) | 0.6 |  | 
11 | O=C(O)CCc1ccc(C(=O)NCc2ccccc2C(F)(F)F)cc1 |  | 38 | 
12 | CCC(Cc1ccc(C(=O)NCc2ccc(Cl)cc2)cc1)C(=O)O (stereo unspecified) | 4 |  | 
13 | CCC(Cc1ccc(C(=O)NCc2ccccc2)cc1)C(=O)O (stereo unspecified) | 13.5 |  | 
14 | CCOC(=O)CCc1ccc(C(=O)NCc2ccccc2C(F)(F)F)cc1 |  | 38 | 
15 | CCOC(=O)C(CC)Cc1ccc(C(=O)NCc2ccc(OC)cc2C(F)(F)F)cc1 (stereo unspecified) | 2 |  | 
